Patent publication US12528818B2, “Compositions and methods for inhibition of RAS” (Leidos Biomedical Research, Inc., priority 2021, dated 2026)

How the values were obtained:
[1] = target: GDP-loaded KRAS4b (amino acids 1-169) G12C/C118S protein (Homo sapiens, UniProt P01116, C118S/G12C); assay: Covalent cysteine 12 modification by MALDI-TOF MS, GDP-loaded KRAS G12C; assay type: biochemical; settings: 15 minutes reaction time, compound 95 or later using 1 μM proteins
[2] = target: GppNHp-loaded KRAS4b (amino acids 1-169) G12C/C118S protein (Homo sapiens, UniProt P01116, C118S/G12C); assay: Covalent cysteine 12 modification by MALDI-TOF MS, GppNHp-loaded KRAS G12C; assay type: biochemical; settings: 15 minutes reaction time, compound 95 or later using 1 μM proteins
[3] = target: Avi-KRAS G12C (1-169) GppNHp/RAF1 RBD-3xFLAG (52-151) (Homo sapiens, UniProt P01116, G12C); assay: biochemical; settings: Raf1-GppNHp-KRAS G12C disruption, Raf1 RBD-KRAS G12C-GppNHp disruption assay IC50
[4] = target: T1, GTP-loaded KRAS4b (amino acids 1-169) G12C/C118S protein (Homo sapiens, UniProt P01116, C118S/G12C); assay: Covalent cysteine 12 modification by MALDI-TOF MS, GTP-loaded KRAS G12C; assay type: biochemical; settings: 15 minutes reaction time, compound 95 or later using 1 μM proteins
T1 construct: KRAS4b (amino acids 1-169) G12C/C118S protein; made in house

C=CC(=O)N1CCC(N(C)c2nc(OC[C@@H]3C[C@@H](F)CN3C)nc3c(F)c(-c4ccc(F)c5sc(N)c(C#N)c45)ccc23)[C@H]1C (some centres unmarked) [Compound 429]
GDP-KRAS G12C percent of modification [1]: A (percent of modification ≥70%) | GppNHp-KRAS G12C percent of modification [2]: A (percent of modification ≥70%) | IC50 [3]: < 0.5 µM | GTP-KRAS G12C percent of modification [4]: A (percent of modification ≥70%)

C=CC(=O)N1CCC(N(C)c2nc(OC[C@@H]3C[C@@H](OC)CN3C)nc3c(F)c(-c4ccc(F)c5sc(N)c(C#N)c45)ccc23)[C@H]1C (some centres unmarked) [Compound 430]
GDP-KRAS G12C percent of modification [1]: A (percent of modification ≥70%) | GppNHp-KRAS G12C percent of modification [2]: A (percent of modification ≥70%) | IC50 [3]: < 0.5 µM | GTP-KRAS G12C percent of modification [4]: A (percent of modification ≥70%)

C=CC(=O)N1CCC(N(CC)c2nc(OC[C@@]34CCCN3C[C@H](F)C4)nc3cc(-c4ccc(F)c5sc(N)c(C#N)c45)ccc23)[C@H]1C (some centres unmarked) [Compound 431]
GDP-KRAS G12C percent of modification [1]: A (percent of modification ≥70%) | GppNHp-KRAS G12C percent of modification [2]: A (percent of modification ≥70%) | IC50 [3]: < 0.5 µM | GTP-KRAS G12C percent of modification [4]: A (percent of modification ≥70%)

C=CC(=O)N1CCC(N(C)c2nc(OC[C@@H]3CCCN3C)nc3c(F)c(-c4ccc(F)c5sc(N)c(C#N)c45)ccc23)[C@H]1COC (some centres unmarked) [Compound 432]
GDP-KRAS G12C percent of modification [1]: A (percent of modification ≥70%) | GppNHp-KRAS G12C percent of modification [2]: A (percent of modification ≥70%) | IC50 [3]: < 0.5 µM | GTP-KRAS G12C percent of modification [4]: A (percent of modification ≥70%)

C=CC(=O)N1CCC(N(C)c2nc(OC[C@@H]3CC4(CC4)CN3C)nc3c(F)c(-c4ccc(F)c5sc(N)c(C#N)c45)ccc23)[C@H]1C (some centres unmarked) [Compound 436]
GDP-KRAS G12C percent of modification [1]: A (percent of modification ≥70%) | GppNHp-KRAS G12C percent of modification [2]: A (percent of modification ≥70%) | IC50 [3]: < 0.5 µM | GTP-KRAS G12C percent of modification [4]: A (percent of modification ≥70%)

C=CC(=O)N1CC[C@@H](N(CC)c2nc(OC[C@@]34CCCN3C[C@H](F)C4)nc3cc(-c4ccc(F)c5sc(N)c(C#N)c45)c(F)cc23)[C@H]1COC [Compound 437]
GDP-KRAS G12C percent of modification [1]: A (percent of modification ≥70%) | GppNHp-KRAS G12C percent of modification [2]: A (percent of modification ≥70%) | IC50 [3]: < 0.5 µM | GTP-KRAS G12C percent of modification [4]: B (50≤percent of modification <70%)

C=CC(=O)N1CCC(N(CC)c2nc(OC[C@@H]3CCCN3C)nc3c(F)c(-c4ccc(F)c5sc(N)c(C#N)c45)c(C(F)(F)F)cc23)[C@H]1COC (some centres unmarked) [Compound 438]
GDP-KRAS G12C percent of modification [1]: A (percent of modification ≥70%) | GppNHp-KRAS G12C percent of modification [2]: A (percent of modification ≥70%) | IC50 [3]: < 0.5 µM | GTP-KRAS G12C percent of modification [4]: B (50≤percent of modification <70%)

C=CC(=O)N1CC[C@@H](N(CC)c2nc(OC[C@@]34CCCN3C[C@H](F)C4)nc3cc(-c4ccc(F)c5sc(N)c(C#N)c45)c(C#N)cc23)[C@H]1COC [Compound 439]
GDP-KRAS G12C percent of modification [1]: A (percent of modification ≥70%) | GppNHp-KRAS G12C percent of modification [2]: A (percent of modification ≥70%) | IC50 [3]: < 0.5 µM | GTP-KRAS G12C percent of modification [4]: A (percent of modification ≥70%)

C=CC(=O)N1CCC(N(CC)c2nc(OC[C@@]34CCCN3C[C@H](F)C4)nc3cc(-c4ccc(F)c5sc(N)c(C#N)c45)ccc23)[C@H]1COC (some centres unmarked) [Compound 440]
GDP-KRAS G12C percent of modification [1]: A (percent of modification ≥70%) | GppNHp-KRAS G12C percent of modification [2]: B (50≤percent of modification <70%) | IC50 [3]: < 0.5 µM | GTP-KRAS G12C percent of modification [4]: C (10%≤percent of modification <50%)

C=CC(=O)N1CC[C@@H](N(CC)c2nc(OC[C@@]34CCCN3C[C@H](F)C4)nc3c(F)c(-c4ccc(F)c5sc(N)c(C#N)c45)c(C(F)(F)F)cc23)[C@H]1COC [Compound 442]
GDP-KRAS G12C percent of modification [1]: A (percent of modification ≥70%) | GppNHp-KRAS G12C percent of modification [2]: B (50≤percent of modification <70%) | IC50 [3]: < 0.5 µM | GTP-KRAS G12C percent of modification [4]: B (50≤percent of modification <70%)

C=CC(=O)N1CCC(N(C)c2nc(OC[C@@H]3C[C@@H](F)CN3C)nc3c(F)c(-c4ccc(F)c5sc(N)c(C#N)c45)c(C(F)(F)F)cc23)[C@H]1COC (some centres unmarked) [Compound 443]
GDP-KRAS G12C percent of modification [1]: B (50≤percent of modification <70%) | GppNHp-KRAS G12C percent of modification [2]: C (10%≤percent of modification <50%) | IC50 [3]: < 0.5 µM | GTP-KRAS G12C percent of modification [4]: C (10%≤percent of modification <50%)

C=CC(=O)N1CCC(N(C)c2nc(OC[C@@H]3C[C@@H](F)CN3C)nc3cc(-c4ccc(F)c5sc(N)c(C#N)c45)c(C#N)cc23)[C@H]1COC (some centres unmarked) [Compound 444]
GDP-KRAS G12C percent of modification [1]: A (percent of modification ≥70%) | GppNHp-KRAS G12C percent of modification [2]: A (percent of modification ≥70%) | IC50 [3]: < 0.5 µM | GTP-KRAS G12C percent of modification [4]: C (10%≤percent of modification <50%)

C=CC(=O)N1CCC(N(CC)c2nc(OC[C@@H]3CC4(CC4)CN3C)nc3c(F)c(-c4ccc(F)c5sc(N)c(C#N)c45)c(C(F)(F)F)cc23)[C@H]1COC (some centres unmarked) [Compound 445]
GDP-KRAS G12C percent of modification [1]: B (50≤percent of modification <70%) | GppNHp-KRAS G12C percent of modification [2]: B (50≤percent of modification <70%) | IC50 [3]: < 0.5 µM | GTP-KRAS G12C percent of modification [4]: B (50≤percent of modification <70%)

C=CC(=O)N1CCC(N(C)c2nc(OC[C@@H]3CC4(CC4)CN3C)nc3cc(-c4ccc(F)c5sc(N)c(C#N)c45)c(C#N)cc23)[C@H]1COC (some centres unmarked) [Compound 446]
GDP-KRAS G12C percent of modification [1]: A (percent of modification ≥70%) | GppNHp-KRAS G12C percent of modification [2]: A (percent of modification ≥70%) | IC50 [3]: < 0.5 µM | GTP-KRAS G12C percent of modification [4]: A (percent of modification ≥70%)

C=CC(=O)N1C[C@H](C)N(c2nc(OC[C@]3(C)CCCN3C)nc3c(F)c(-c4ccc(F)c5sc(N)c(C#N)c45)c(C(F)(F)F)cc23)C[C@H]1C [Compound 447, 4-(4-((2S,5R)-4-acryloyl-2,5-dimethylpiperazin-1-yl)-2-(((S)-1,2-dimethylpyrrolidin-2-yl)methoxy)-8-fluoro-6-(trifluoromethyl)quinazolin-7-yl)-2-amino-7-fluorobenzo[b]thiophene-3-carbonitrile]
GDP-KRAS G12C percent of modification [1]: A (percent of modification ≥70%) | GppNHp-KRAS G12C percent of modification [2]: A (percent of modification ≥70%) | IC50 [3]: < 0.5 µM | GTP-KRAS G12C percent of modification [4]: C (10%≤percent of modification <50%)

C=CC(=O)N1CCC(N(C)c2nc(OC[C@@H]3C[C@@H](F)CN3C)nc3c(F)c(-c4ccc(F)c5sc(N)c(C#N)c45)c(Cl)cc23)[C@H]1C (some centres unmarked) [Compound 449]
GDP-KRAS G12C percent of modification [1]: B (50≤percent of modification <70%) | GppNHp-KRAS G12C percent of modification [2]: D (percent of modification <10%) | IC50 [3]: 0.5 to 5 µM | GTP-KRAS G12C percent of modification [4]: D (percent of modification <10%)

C=CC(=O)N1CCC(N(CC)c2nc(OC[C@@H]3C[C@@H](F)CN3C)nc3c(F)c(-c4ccc(F)c5sc(N)c(C#N)c45)c(C(F)(F)F)cc23)[C@H]1COC (some centres unmarked) [Compound 453]
GDP-KRAS G12C percent of modification [1]: C (10%≤percent of modification <50%) | GppNHp-KRAS G12C percent of modification [2]: C (10%≤percent of modification <50%) | IC50 [3]: < 0.5 µM | GTP-KRAS G12C percent of modification [4]: C (10%≤percent of modification <50%)

C=CC(=O)N1CCC(N(C)c2nc(OC[C@@H]3C[C@@H](OC)CN3C)nc3c(F)c(-c4ccc(F)c5sc(N)c(C#N)c45)c(C(F)(F)F)cc23)[C@H]1COC (some centres unmarked) [Compound 454]
GDP-KRAS G12C percent of modification [1]: A (percent of modification ≥70%) | GppNHp-KRAS G12C percent of modification [2]: B (50≤percent of modification <70%) | IC50 [3]: < 0.5 µM | GTP-KRAS G12C percent of modification [4]: B (50≤percent of modification <70%)

C=CC(=O)N1CCC(N(C)c2nc(OC[C@@H]3CCCN3C)nc3cc(-c4ccc(F)c5sc(N)c(C#N)c45)c(C#N)cc23)[C@H]1COC (some centres unmarked) [Compound 455]
GDP-KRAS G12C percent of modification [1]: A (percent of modification ≥70%) | GppNHp-KRAS G12C percent of modification [2]: A (percent of modification ≥70%) | IC50 [3]: < 0.5 µM | GTP-KRAS G12C percent of modification [4]: A (percent of modification ≥70%)

C=CC(=O)N1CCC(N(C)c2nc(OC[C@@H]3CC4(CC4)CN3C)nc3c(F)c(-c4ccc(F)c5sc(N)c(C#N)c45)c(C(F)(F)F)cc23)[C@H]1COC (some centres unmarked) [Compound 456]
GDP-KRAS G12C percent of modification [1]: A (percent of modification ≥70%) | GppNHp-KRAS G12C percent of modification [2]: A (percent of modification ≥70%) | IC50 [3]: < 0.5 µM | GTP-KRAS G12C percent of modification [4]: A (percent of modification ≥70%)

C=CC(=O)N1CC[C@@H](N(C)c2nc(OCC)nc3c(F)c(-c4ccc(F)c5sc(N)c(C#N)c45)ccc23)[C@H]1C [Compound 463]
GDP-KRAS G12C percent of modification [1]: C (10%≤percent of modification <50%) | GppNHp-KRAS G12C percent of modification [2]: D (percent of modification <10%) | IC50 [3]: 0.5 to 5 µM | GTP-KRAS G12C percent of modification [4]: D (percent of modification <10%)

C=CC(=O)N1CCC(N(C)c2nc(OC[C@@H]3C[C@@H](OC)CN3C)nc3cc(-c4ccc(F)c5sc(N)c(C#N)c45)c(C#N)cc23)[C@H]1COC (some centres unmarked) [Compound 465]
GDP-KRAS G12C percent of modification [1]: A (percent of modification ≥70%) | GppNHp-KRAS G12C percent of modification [2]: A (percent of modification ≥70%) | IC50 [3]: < 0.5 µM | GTP-KRAS G12C percent of modification [4]: A (percent of modification ≥70%)

C=CC(=O)N1CCC(N(CC)c2nc(OC[C@@H]3CCCN3C)nc3cc(-c4ccc(F)c5sc(N)c(C#N)c45)c(C#N)cc23)[C@H]1COC (some centres unmarked) [Compound 470]
GDP-KRAS G12C percent of modification [1]: A (percent of modification ≥70%) | GppNHp-KRAS G12C percent of modification [2]: B (50≤percent of modification <70%) | IC50 [3]: < 0.5 µM | GTP-KRAS G12C percent of modification [4]: C (10%≤percent of modification <50%)
